From patent US20260139049A1 (published 2026)

Key:
[1] = molecular target: T1, MKN7 (human, UniProt P56747 1-220); assay: FACS; MKN7 cells
T1 chain: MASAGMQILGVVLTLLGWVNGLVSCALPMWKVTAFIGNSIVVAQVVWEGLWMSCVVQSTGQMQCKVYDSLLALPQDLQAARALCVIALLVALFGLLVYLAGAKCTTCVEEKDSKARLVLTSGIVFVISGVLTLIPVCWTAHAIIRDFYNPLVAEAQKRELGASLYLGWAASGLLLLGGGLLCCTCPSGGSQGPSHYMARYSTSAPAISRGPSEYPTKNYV

[2] = molecular target: T2, OVCA429 (human, UniProt P56747 1-220); assay: FACS; OVCA429 cells
T2 chain: T1 chain

EC50 [1]: 26.3 mg/L
EC50 [2]: 21.9 mg/L
B1: AB3-7 (antibody, V domains shown)
VH: EVQLLESGGGLVQPGGSMRLSCAASGFTFSNYWMNWVRQAPGKGLEWVAQIRLKSDNYATHYADSVKGRFTISRDDSKNTVYLQMNSLRAEDTGVYYCNDGPPSGSWGQGTLLTVSS
VL: DIQMTQSPSSLSASVGDRVTITCRISENIYSYLAWYQQKPGKAPKLLVYNAKILVEGVPSRFSGSGSGTDFTLTISSLQPEDFGTYYCQHHYTVPWTFGQGTKLEIK
